scFv variants of Ab-14 (heavy chain) against a SARS-CoV-2 spike peptide

From the AlphaSeq antibody data of Li et al. 2023 (doi:10.1038/s41467-023-39022-2), copy in the FLAb collection.

All variants were tested on one target, the spike HR2 peptide PDVDLGDISGINAS (SARS-CoV-2).

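The parent was found by panning a naive human phage display library on the peptide. Designed CDR sequences, proposed from the first random library and measured here. Group labels follow the data file (Ctrl: baseline library sampled from a position-specific scoring matrix, with some repeated check sequences; Rand: our label for a block that the file lists under HC and that is probably the random mutants of the ten best first-round binders; En: ensemble of fine-tuned language models; GP: Gaussian process model; GPLM: also part of the Gaussian process libraries; HC: hill climbing; Gen: genetic algorithm; Gibbs: Gibbs sampling; a sequence that several methods proposed may carry one label only). AlphaSeq pools MATa yeast showing the antibodies with MATalpha yeast showing the peptide. Mating (16 h, 30 °C) was followed by selection of diploids and sequencing of their barcodes. Scores were corrected for input abundance and mapped to Kd with protein pairs of known affinity run in the same pool. Each pool was mated in six replicate cultures.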

The variants keep the light chain, the linker and the frameworks of Ab-14 (scFv order VH, the linker GGGGSGGGGSGGGGS, VL).
VH: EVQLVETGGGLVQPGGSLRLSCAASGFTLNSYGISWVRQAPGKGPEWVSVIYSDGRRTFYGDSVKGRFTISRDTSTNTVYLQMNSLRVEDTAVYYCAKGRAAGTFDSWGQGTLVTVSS
VL: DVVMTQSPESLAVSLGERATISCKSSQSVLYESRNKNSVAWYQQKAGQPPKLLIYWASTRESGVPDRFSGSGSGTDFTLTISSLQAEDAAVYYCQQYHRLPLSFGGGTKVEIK

Variants are written as CDR1, CDR2 and CDR3 of the heavy chain (limits as in the source). Parent: GFTLNSYGIS, VIYSDGRRTFYGDSVK, GRAAGTFDS. Kd is apparent (estimated from mating counts) and averaged on the log scale over replicates with a signal. Smaller is tighter. "nd" means that the variant was in the library but no mating with the target was seen in any replicate; the authors take this as a sign of poor binding, and no number exists. The authors' rule: three or more of the six replicates give a measured affinity, fewer mean a poor binder.

CDR-H1,CDR-H2,CDR-H3,group,Kd (apparent),seen in,signal with controls
GFDLDEYGIS,VIYADGQRTYYADSVK,GEVAGTFDV,En_Gen,410 pM,6 of 6,0 of 18
GFSLNEYGIS,VIYADGRRTFYGDSVK,GMAAGTFDS,GP_HC,200 pM,6 of 6,0 of 18
GFDLNSYGIS,VIYSDGRRTFYGDSVK,GQTAGTFDC,GP_Gen,28 nM,5 of 6,0 of 18
GFDLNSYGIS,VIYSDGRRTAYGDSVK,GRMAGTFDS,GP_Gen,940 pM,6 of 6,0 of 18
GMGLSEYGIS,VIYADGMRTSYDNSVK,GALAGTFDE,En_Gibbs,4.1 nM,6 of 6,0 of 18
GFDLNEYGIS,VIYADGVRTSYADDVK,GNVAGTFDV,En_Gen,nd,0 of 6,0 of 18
GFTLNEYGIS,VIYSDGRRTFYSDSVK,GQPAGTIDS,Rand,nd,0 of 6,1 of 18
GFTLNSYGIS,VIYSDGRRTFYGDSVK,GKQAGTFDS,Ctrl+GPLM_Gibbs,62 nM,5 of 12,0 of 36
GFELNEYGIS,VIYSDGRRTFYDDSVK,GKAAGTFDS,GP_Gen,980 pM,6 of 6,1 of 18
GFDLNEYGIS,VIYADGMRTAYSDSVK,GEVAGTFDV,En_Gen,5.8 nM,5 of 6,0 of 18
GFTLNSYGIS,VIYSDGRRTFYHDSVK,GEAAGTFDS,GPLM_Gen,5.1 nM,6 of 6,0 of 18
GFDLNEYGIS,VIYADGRRTAYVDSVK,GGNAGTFDV,En_Gen,1.3 nM,6 of 6,0 of 18
GFDLNEYGIS,VIYADGVRTFYADSVK,GNNAGTFDS,En_HC,7.6 nM,6 of 6,0 of 18
GFGLNEYGIS,VIYSDGRRTFYQDSVK,GRAAGTFDS,GP_Gen,nd,0 of 6,0 of 18
GFDLNSYGIS,VIYSDGRRTFYGDKVK,GQTAGTFDD,GP_Gibbs,1.8 nM,6 of 6,0 of 18
GFTLNEYGIS,VIYSDGRRTFYMDSVK,GRNAGTFDS,GPLM_HC,2.2 nM,6 of 6,0 of 18
GFWLNEYGIS,VIYSDGRRTFYHDSVK,GRAAGTFDT,GP_Gen,3.7 nM,6 of 6,0 of 18
PFTLNSYGIS,VIYSDGRRTFYSDSVK,GEAAGTFDS,GP_HC,63 nM,5 of 6,2 of 18
GFTLNQYGIS,VIYSDGRRTFYGDSVK,GRAKGTFDS,Ctrl,9.6 nM,6 of 6,1 of 18
KFELNSYGIS,VIYSDGRRTFYGDSVK,GQTAGTFDS,GP_Gen,360 nM,2 of 6,0 of 18
GFDLNEYGIS,VIYADGRRTAYADDVK,GEVAGTFDM,En_Gen,160 pM,6 of 6,0 of 18
GFDLNEYGIS,VIYADGRRTFYADSVK,GNLAGTFDS,En_HC,420 pM,6 of 6,0 of 18
GFTLYQKGWS,VICSDGRRTFYSDSVK,GRAAGFFDS,Rand,53 nM,1 of 6,0 of 18
GFTLRSYGIS,VIYSDGRRTFYGDSVK,GPAAGAFDS,Ctrl,nd,0 of 6,0 of 18
GYSLNSYGIS,VIYSDGRRTFYGDSVK,GRAAGTSPS,Ctrl,nd,0 of 6,0 of 18
KFDLNSYGIS,VIYSDGRRTFYTDSVK,GKNAGTFDS,GP_Gibbs,19 nM,6 of 6,0 of 18
GFELNDYGIS,VIYSDGRRTEYQDSVK,GRAAGTFDS,GP_HC,28 nM,3 of 6,0 of 18
GFWLNEYGIS,VIYSDGRRTFYIDSVK,GQAAGTFDS,GPLM_Gibbs,71 nM,5 of 6,0 of 18
GFTLNSYGIS,VIYSDGRRTFYGDSVK,GRHAGTFDV,Ctrl,290 nM,3 of 6,0 of 18
QFDLNSYGIS,VIYSDGIRTFYGNSVK,GAEAGTFDS,Ctrl,260 nM,4 of 6,0 of 18
GFTLNEYGIS,VIYSDGRRTFYGDSVK,GHAAGTFDN,GP_HC,4.5 nM,6 of 6,0 of 18
GFDLNEYGIS,VIYADGMRTYYADDVK,GNVAGTFDQ,En_Gen,690 pM,6 of 6,0 of 18
GFSLNSYGIS,VIYSDGRRTFYSDSVK,GKAGGTFDS,GPLM_HC,13 nM,6 of 6,1 of 18
GFTLNDYGIS,VWYSDGRRTFYGDSVK,GRAALTLIS,Rand,nd,0 of 6,0 of 18
GFSLNSYGIS,VIYSDGRRTFYGDSVK,GRAAGTGDS,Ctrl,nd,0 of 6,0 of 18
KFSLNSYGIS,VIYSDGRRTFYGDSVK,GRTAGTFDD,GP_Gibbs,6.1 nM,6 of 6,1 of 18
GFQLNSYGIS,VIYSDGRRTFYADSVK,GHAAGTFDS,GPLM_Gen,6.7 nM,6 of 6,1 of 18
GFDFNEYGIS,VIYADGKRQAYADKVK,GGKNAFTDI,En_Gibbs,nd,0 of 6,0 of 18
GFSLNSYGIS,VIYSDGRRTFYADSVK,GQAAGTFDT,GPLM_Gen,670 pM,6 of 6,0 of 18
GFDLNSYGIS,VIYSDGRRTVYGDAVK,GRTAGTFDS,GPLM_Gibbs,1.2 nM,6 of 6,0 of 18
GFHLNSYGIS,VIYSDGRRTFYVDSVK,GKTAGTFDS,GP_Gen,860 nM,1 of 6,0 of 18
GFSLNTYGIS,VIYSDGRRTFYGDSVK,GREAGTFDS,GPLM_Gibbs,1.7 nM,6 of 6,2 of 18
GFELNQYGIS,VIYSDGRRTFYSDSVK,GRAAGHFDS,GPLM_HC,nd,0 of 6,0 of 18
GFDLNEYGIS,VIYADGVRTAYADKVK,GENAGTFDV,En_Gen,1.1 nM,6 of 6,0 of 18
GFSLNSYGIS,VIYSDGRRTFYGDNVK,GRVAGTFDS,GPLM_Gen,310 pM,3 of 6,0 of 18
GFTLNEYGIS,VIYSDGRRTFYGDSVK,GQAALTFDS,Ctrl,nd,0 of 6,0 of 18
GFDLNEYGIS,VIYADGMRTAYSDSVK,GNNAGTFDT,En_Gen,1.1 nM,6 of 6,0 of 18
GFWLNEYGIS,VIYSDGRRTFYADSVK,GKAAGTFDS,GPLM_Gen,8.1 nM,6 of 6,1 of 18
GFNLNSYGIS,VIYSDGRRTFYVDDVK,GRTAGTFDS,GP_Gibbs,1.4 nM,6 of 6,0 of 18
GFSLNSYGIS,VIYSDGRRTFYGDSVK,GNAAGTFDK,GPLM_Gibbs,2.9 nM,6 of 6,0 of 18

5 of these entries, quoted again:

{"CDR-H1": "GFELNQYGIS", "CDR-H2": "VIYSDGRRTFYSDSVK", "CDR-H3": "GRAAGHFDS", "group": "GPLM_HC", "Kd (apparent)": "nd", "seen in": "0 of 6", "signal with controls": "0 of 18"}
{"CDR-H1": "GFELNEYGIS", "CDR-H2": "VIYSDGRRTFYDDSVK", "CDR-H3": "GKAAGTFDS", "group": "GP_Gen", "Kd (apparent)": "980 pM", "seen in": "6 of 6", "signal with controls": "1 of 18"}
{"CDR-H1": "GFDLNEYGIS", "CDR-H2": "VIYADGMRTYYADDVK", "CDR-H3": "GNVAGTFDQ", "group": "En_Gen", "Kd (apparent)": "690 pM", "seen in": "6 of 6", "signal with controls": "0 of 18"}
{"CDR-H1": "GFDLNEYGIS", "CDR-H2": "VIYADGMRTAYSDSVK", "CDR-H3": "GNNAGTFDT", "group": "En_Gen", "Kd (apparent)": "1.1 nM", "seen in": "6 of 6", "signal with controls": "0 of 18"}
{"CDR-H1": "GFTLNSYGIS", "CDR-H2": "VIYSDGRRTFYHDSVK", "CDR-H3": "GEAAGTFDS", "group": "GPLM_Gen", "Kd (apparent)": "5.1 nM", "seen in": "6 of 6", "signal with controls": "0 of 18"}

Three control strains display no target. For all heavy chain designs, 1% of the pairings with them gave a signal, with a median of 120 nM and one signal in twenty below 7.0 nM, so weak values seen in few replicates may be background. The control count says in how many pairings with the empty strains this scFv gave a signal. A sequence that the file lists under several names has all its replicates pooled. Of ten entries with the parent sequence, four were seen in most replicates (averages 2.2 nM to 240 nM), three in one and three in none, so single entries are noisy. A sequence measured in both rounds can read differently, since the two assays cover different ranges.